Measurements taken from patent US11266647B2, “Method for increasing cell proliferation in pancreatic beta cells, treatment method, and composition” (ICAHN SCHOOL OF MEDICINE AT MOUNT SINAI, priority 2016, dated 2022).

Test system: human beta cells
Experiment: Ki67 immunolabeling in human islets with adenoviral silencing or overexpression plus drug
Assay type: cell-based
Conditions: Ad.shDYRK1A plus TGFβ inhibitor
Procedure: The immunoblots are representative of separate experiments in human islets from three different donors. […] Ad.shLacZ indicates a sh-adenovirus for the Ad.shDYRK1A.
Unless otherwise described, all transductions were performed using 150 moi for one hour, and studies performed 72 hours later. […] Adenoviruses encoding human SMAD6 or SMAD7 were prepared as described using cDNAs encoding SMAD6 and SMAD7 obtained from Harvard PlasmID Database.
Primary antisera were: BrdU (ab6326, Abcam), Ki67 (RM-9106-sl, Thermo Scientific, and MIB1, DAKO), p-Histone-3 (06-570, Millipore), insulin (A0564, DAKO), p-yH2AX (MA1-2022, Thermo Scientific), NKX6.1 (F55A10-c, University of Iowa), PDX1 (07-696, Millipore), MAFA (Ab26405, Abcam), Glucagon (2760s, Cell Signaling), Somatostatin (Sc-20999, Santa Cruz), Pancreatic Polypeptide (A0619, DAKO), and CK19 (Ab52625, Abcam). Species-specific mouse Alexa Fluor 488 (A-11029, Life Technologies), rat Alexa Fluor 594 (A-11007, Life Technologies), rabbit Alexa Fluor 488 (A11037, Life Technologies) or guinea pig Alexa Fluor 488 (A-11073, Life Technologies) secondary antisera were selected as appropriate.

SMILES: c1ccc(-c2n[nH]cc2-c2ccnc3ccccc23)nc1 [LY364947, 4-[3-(2-Pyridinyl)-1H-pyrazol-4-yl]-quinoline]
- proliferation with adenoviral silencing of DYRK1A: markedly accentuates proliferation
